Experimental data: PMC5467183 (ACS Medicinal Chemistry Letters, 2017)
Like-named read-outs stand apart in the source and are kept apart here.

Key:
[1] = test system: CD86 surface expression on B cells; test: cells; settings: Mus musculus, B-cell
[2] = rat hepatocytes
[3] = MDCK, A to B
[4] = human hepatocytes

| Structure (SMILES) | IC50 ([1]; read-out: IC50 CD86) | other results |
| --- | --- | --- |
| Cn1cc(-c2cccc(N3CCc4c(sc5c4CCCC5)C3=O)c2CO)cc(Nc2ccncn2)c1=O [2b] | 87 nM | IC50 ([1]; read-out: CD86 IC50): < 100 nM |
| Cn1cc(-c2cccc(N3CCn4c(cc5c4CCCC5)C3=O)c2CO)cc(Nc2ccncn2)c1=O [compound 3] | 200 nM | – |
| Cn1cc(-c2cccc(N3CCc4c(cc5n4CCCC5)C3=O)c2CO)cc(Nc2ccncn2)c1=O [compound 4] | 480 nM | – |
| Cn1cc(-c2cccc(N3CCn4c(nc5c4CCCC5)C3=O)c2CO)cc(Nc2ccncn2)c1=O [compound 5] | 48600 nM | – |
| Cn1cc(-c2cccc(N3CCc4c(nc5n4CCCC5)C3=O)c2CO)cc(Nc2ccncn2)c1=O [compound 6] | > 50000 nM | – |
| Cn1cc(-c2cccc(N3CCc4c(sc5c4CC(C)(C)C5)C3=O)c2CO)cc(Nc2ccncn2)c1=O [compound 7] | – | RHep (projected hepatic clearance) [2]: < 10; Perm. [3]: MOD (MOD: 1–10 (10^–6 cm/s)) |
| Cn1cc(-c2cccc(N3CCn4c(cc5c4CC(C)(C)C5)C3=O)c2CO)cc(Nc2ccncn2)c1=O [compound 8] | 57 nM | IC50 ([1]; read-out: CD86 IC50): < 100 nM |
| Cn1cc(-c2cccc(N3Cc4cc(C(C)(C)C)ccc4C3=O)c2CO)cc(Nc2ccncn2)c1=O [compound 12] | 1200 nM | – |
| Cn1cc(-c2cccc(N3CCNc4cc(C(C)(C)C)ccc4C3=O)c2CO)cc(Nc2ccncn2)c1=O [compound 13] | 171 nM | – |
| Cn1cc(-c2cccc(N3CCOc4cc(C(C)(C)C)ccc4C3=O)c2CO)cc(Nc2ccncn2)c1=O [compound 14] | 230 nM | – |
| CN1CCN(c2ccc(Nc3cc(-c4cccc(N5CCc6c(sc7c6CC(C)(C)C7)C5=O)c4CO)cn(C)c3=O)nc2)CC1 [compound 15] | 25 nM | RHep (projected hepatic clearance) [2]: < 10; HHep (projected hepatic clearance) [4]: < 6.2 |
| Cn1cc(-c2cccc(N3CCc4c(sc5c4CC(C)(C)C5)C3=O)c2CO)cc(Nc2ccc(N3CCN(C4COC4)CC3)cn2)c1=O [compound 16] | 6 nM | RHep (projected hepatic clearance) [2]: < 10; Perm. [3]: MOD (MOD: 1–10 (10^–6 cm/s)) |
